Laboratory results published in patent publication US20090233958A1, “(+)-BELOXEPIN AND METHODS FOR ITS SYNTHESIS AND USE” (priority 2008, published 2009).

The chains behind the UniProt entries cited, without tags or fusion partners.
UniProt P10635, whole entry: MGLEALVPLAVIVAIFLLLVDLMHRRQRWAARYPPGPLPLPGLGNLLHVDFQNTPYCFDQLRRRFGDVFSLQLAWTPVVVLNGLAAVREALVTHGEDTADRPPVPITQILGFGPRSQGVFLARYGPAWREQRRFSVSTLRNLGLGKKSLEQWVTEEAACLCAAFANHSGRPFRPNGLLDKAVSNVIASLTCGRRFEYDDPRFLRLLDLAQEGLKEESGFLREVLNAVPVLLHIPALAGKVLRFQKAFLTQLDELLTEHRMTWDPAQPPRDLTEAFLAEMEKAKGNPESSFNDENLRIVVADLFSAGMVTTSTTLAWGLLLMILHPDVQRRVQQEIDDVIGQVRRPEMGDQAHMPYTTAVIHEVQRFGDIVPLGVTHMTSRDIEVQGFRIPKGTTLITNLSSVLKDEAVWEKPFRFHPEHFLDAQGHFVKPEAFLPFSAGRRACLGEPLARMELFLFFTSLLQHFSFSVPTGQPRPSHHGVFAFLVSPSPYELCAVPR
UniProt P23975, whole entry: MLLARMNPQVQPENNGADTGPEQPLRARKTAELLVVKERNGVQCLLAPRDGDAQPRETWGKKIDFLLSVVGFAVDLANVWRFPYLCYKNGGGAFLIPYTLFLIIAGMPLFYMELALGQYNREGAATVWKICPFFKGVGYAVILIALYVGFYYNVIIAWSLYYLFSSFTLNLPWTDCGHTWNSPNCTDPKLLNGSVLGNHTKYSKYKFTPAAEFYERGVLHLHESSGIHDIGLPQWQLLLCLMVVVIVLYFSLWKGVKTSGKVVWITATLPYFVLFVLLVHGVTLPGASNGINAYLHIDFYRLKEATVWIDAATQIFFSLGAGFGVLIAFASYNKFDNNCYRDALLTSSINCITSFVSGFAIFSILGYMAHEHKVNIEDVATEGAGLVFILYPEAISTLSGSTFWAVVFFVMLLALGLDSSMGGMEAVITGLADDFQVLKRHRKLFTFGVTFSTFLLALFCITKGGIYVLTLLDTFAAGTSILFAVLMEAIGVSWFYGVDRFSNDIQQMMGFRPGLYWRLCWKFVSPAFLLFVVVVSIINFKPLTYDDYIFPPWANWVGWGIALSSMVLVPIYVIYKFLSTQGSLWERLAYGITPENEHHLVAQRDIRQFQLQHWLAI

Tests used:
[1] = molecular target: T1, human recombinant CYP2D6 (Homo sapiens, UniProt P10635); experiment: CYP2D6 inhibition, MAMC substrate, recombinant microsomes; type: in vitro ADME; details: ratio versus (−) enantiomer
T1 construct: purchased BD Bioscience
Procedure: Protocol. […] The source of the enzyme was microsomes containing human recombinant CYP2D6 obtained from BD Bioscience. Conversion of MAMC to 7-hydroxy-4-(aminomethyl)coumarin was measured using a PerkinElmer Fusion with a 390 nm excitation filter and a 460 nm emission filter.

[2] = test system: other monoamine carriers (serotonin and dopamine transporters); details: synaptosomes from rat and primate brain; Sperling & Demling 1997; cited from earlier work
[3] = molecular target: T2, human NE transporter (hNET) (Homo sapiens, UniProt P23975); experiment: NE transporter binding assay ([3H]nisoxetine); details: ratio versus (+) enantiomer
T2 construct: expressed in transfected cells; host or cells: CHO cells (membranes)
Procedure: Protocols. For the NE transporter binding assay, [^3H]nisoxetine (1.0 nM) was incubated with various concentrations of test compounds for 2 hours at 4° C. with membranes prepared from Chinese hamster ovary cells (CHO) cells heterologously expressing the cloned human NE transporter (hNET). Bound radioactivity was determined by scintillation spectroscopy.

In the case of `Cc1cccc2c1Oc1ccccc1C1(O)CCN(C)CC21` (single isomer, unassigned; (+)) [(+)-beloxepin], the “CYP2D6 inhibition, fold more active than the (−) enantiomer” value [1] was “approximately 18 fold”.
In the case of `Cc1cccc2c1Oc1ccccc1C1(O)CCN(C)CC21` (racemic) [(±)-beloxepin, cis-1,2,3,4,4a,13b-hexahydro-2,10-dimethyldiben-[2,3:6,7]oxepino[4,5c]pyridine-4-a-ol]], the “fold less affinity for other monoamine carriers than for noradrenaline reuptake” value [2] is given as “greater than 100 fold”.
For `Cc1cccc2c1Oc1ccccc1C1(O)CCN(C)CC21` (single isomer, unassigned; (-)) [(−)-beloxepin], the “NET affinity, fold higher than the (+) enantiomer” value [3] was “approximately 8 fold”.
